From published antibiotic growth screens (doi:10.1038/s41589-023-01349-8) come the findings set out here.

The other results are listed elsewhere or left out.

The subject of this experiment is A. baumannii ATCC 17978. Put plainly: relative growth (fraction of control); higher = less inhibition. The note with it: 50 µM.
The compound `Cl.N=c1ccn2c(n1)O[C@@H]1[C@@H](O)[C@H](CO)O[C@@H]12` gave a relative growth of 1.01.
`C=CC[C@@H](CC(=O)N[C@@H](CO)Cc1ccccc1)C(=O)N[C@@H](C)COC(=O)[C@@H](CC=C)CC(=O)OC(C)(C)C`: the relative growth was determined as 0.629.
`O=c1cc(-c2ccccc2O)oc2cc(O)ccc12` showed a relative growth of 1.06.
Regarding `COC(=O)C[C@H]1CC[C@@H]2[C@H](COC[C@H](O)CN2S(=O)(=O)c2cn(C)cn2)O1`, the relative growth is 0.908.
The compound `OC[C@H]1O[C@@H](OCCc2ccc(O)cc2)[C@H](O)[C@@H](O)[C@@H]1O` had a relative growth of 0.835.
For the compound `O=S(=O)(NCCCN(C/C=C/c1ccc(F)cc1)C/C=C/c1ccc(F)cc1)c1cccc2cnccc12`, the relative growth worked out at 0.98.
The figure for `CC(=O)O[C@H]1CC[C@]2(C)[C@H]3CC[C@@]4(C)[C@H](c5ccoc5)OC(=O)[C@H]5O[C@]54[C@]3(C)[C@H](OC(C)=O)C[C@H]2C1(C)C` [3beta-ACETOXYDEOXODIHYDROGEDUNIN] is 0.868; for `O=C(O)CC[C@H]1CCC(=O)N1` it is 0.973; for `CCOCC(O)COc1ccc(NC(=O)CC[S+](C)C)cc1.Cc1ccc(S(=O)(=O)[O-])cc1` (centres undefined) it is 1.02.
The compound `CC(=O)O[C@H]1CCC2(C)C3=C(CCC2C1(C)C)[C@]1(C)CCC(C(C)CCC=C(C)C)[C@@]1(C)CC3` (some centres undefined) gave a relative growth of 0.903.
Compound `CCOC(=O)Cc1n[nH]c(=O)[nH]c1=O` had a relative growth of 1.03.
Consider `CCCNC(=O)N1C[C@@H](O)COC[C@H]2O[C@@H](CC(=O)NCc3ccncn3)CC[C@@H]21`, for which the relative growth came to 0.965.
Then `Cl.O=C(O)c1cn(-c2ccc(F)cc2)c2cc(N3CCNCC3)c(F)cc2c1=O`, with 0.137.
Compound `CSCC[C@H](N)C(=O)O` returned a relative growth of 0.863.
In turn, `C[C@@H](O)[C@H](N)C(=O)O` registered a relative growth of 1.02.
`CNCCC=C1c2ccccc2CCc2ccccc21.Cl` gave a relative growth of 0.91.
Then `O=C(C[C@@H]1CC[C@H]2[C@@H](COC[C@@H](O)CN2C(=O)c2ccccc2F)O1)N1CCN(c2ccccc2)CC1`, with 1.06; and `COc1ccc([C@@H](N)c2ccccc2)cc1`, with 0.866; and `CC1C/C=C/C=C/C=C/C=C/C(O[C@@H]2O[C@H](C)[C@@H](O)[C@H](N)[C@@H]2O)CC2OC(O)(CC(O)CC3OC3/C=C/C(=O)O1)CC(O)C2C(=O)O` (some centres undefined), with 1.06.
`C[C@@H](O)Cn1cnc2c1c(=O)n(C)c(=O)n2C` showed a relative growth of 0.955.
Then `Cn1cnc(S(=O)(=O)N[C@@H]2CC[C@H](CC(=O)N3CCN(c4ccccc4)CC3)O[C@@H]2CO)c1`, with 1.06.
The figure for `COc1cccc(S(=O)(=O)Nc2ccc3c(c2)[C@@H]2C[C@H](CC(=O)NCc4cccc(F)c4)O[C@@H](CO)[C@@H]2O3)c1` is 0.916; for `O=C(C[C@H]1CC[C@H]2[C@@H](COC[C@H](O)CN2S(=O)(=O)c2ccc(Cl)cc2)O1)N[C@@H]1CCN(Cc2ccccc2)C1` it is 1.
`COc1ccccc1NC(=O)N(C)C[C@H]1Oc2cc(Br)ccc2S(=O)(=O)N([C@@H](C)CO)C[C@@H]1C` returned a relative growth of 0.971.
Consider `Cl.NCCCC(N)(C(=O)O)C(F)F.O` (centres undefined), for which the relative growth came to 0.957.
Then `Cc1cccc(S(=O)(=O)N2C[C@@H](O)COC[C@@H]3O[C@H](CC(=O)NCCCN4CCOCC4)CC[C@H]32)c1`, with 1.07; and `Nc1nonc1C(=O)NCc1ccco1`, with 0.849.
Compound `Cc1c(Cl)cccc1Nc1ncccc1C(=O)O` showed a relative growth of 0.89.
The figure for `O=C(N/N=C/c1ccc([N+](=O)[O-])o1)c1ccc(O)cc1` is 1; for `CCNC(=O)C[C@@H]1C=C[C@H](NC(=O)C2CC2)[C@@H](CO)O1` it is 0.97; for `C[N+](C)(C)CCCC[C@@H]1NC(=O)[C@@H]2C[C@H](C(=O)NCc3ccc(F)cc3)[C@H](c3ccc(O)cc3)N2C1=O` it is 1.01.
As for `C=CCOC(=O)[C@H]1[C@@H]2C(=O)O[C@@H](c3ccccc3)[C@@H](c3ccccc3)N2[C@@H](c2ccc(OCCOC(=O)[C@H]3C[C@H]4C(=O)N[C@@H](CCCCN(C)C)C(=O)N4[C@H]3c3ccc(O)cc3)cc2)[C@]12C(=O)Nc1ccc(I)cc12`, the relative growth was determined as 1.01.
Then `C[C@@H](O)C#Cc1ccc2c(c1)O[C@H](CN(C)C(=O)Cc1ccccn1)[C@@H](C)CN([C@@H](C)CO)S2(=O)=O`, with 1.13; and `Cc1ccc(C(C)C)cc2c(C)ccc1-2`, with 1.35.
Regarding `CCCNC(=O)N[C@H]1C=C[C@H](CC(=O)N2CCN(C)CC2)O[C@H]1CO`, the relative growth stood at 1.02.
The figure for `Cc1ccc(C(N)=S)c(=O)[nH]1` is 1.15; for `NC(=O)c1ncn([C@@H]2O[C@H](CO)[C@@H](O)[C@H]2O)c1O` it is 0.926.
Compound `c1ccc(C2C3=C(CCCC3)SC3=C2CCCC3)cc1` registered a relative growth of 0.974.
Turning to `C[C@H](CO)N1C[C@H](C)[C@H](CN(C)S(=O)(=O)c2ccc(F)cc2)Oc2ncc(Br)cc2C1=O`, the relative growth was determined as 1.08.
The compound `O=c1[nH]snc1N1CCCCC1` showed a relative growth of 1.17.
Then `O=C(C[C@H]1C=C[C@H](NC(=O)CN2CCOCC2)[C@H](CO)O1)NCc1cccc(F)c1`, with 1.05; and `CO[C@@H](CN(C)C(=O)Nc1ccc(C(F)(F)F)cc1)[C@H](C)CN(Cc1ccccc1Cl)[C@H](C)CO`, with 0.749.
The figure for `CC(=O)Nc1c(I)c(NC(C)=O)c(I)c(C(=O)O)c1I` is 0.911.
For the compound `Nc1nncn1C(=O)c1ccccc1F`, the relative growth stood at 0.965.
`Cn1cnc(S(=O)(=O)N[C@@H]2C=C[C@@H](CC(=O)Nc3ccccc3)O[C@H]2CO)c1` displayed a relative growth of 1.02.
The compound `CCc1cc(C(N)=S)ccn1` showed a relative growth of 1.21.
The figure for `COc1ccc(COC[C@]23N=C4SCC(=O)N4[C@H](c4ccccc4O2)[C@H]3COC(=O)NCCCCCC(=O)NO)cc1` is 1.1.
Then `C/C(=C\CC[C@@H](C)[C@H]1C[C@@H](O)[C@@]2(C)[C@H]3CC[C@H]4C(C)(C)[C@@H](O[C@@H]5O[C@@H](CO[C@H]6OC[C@@H](O)[C@@H](O)[C@@H]6O)[C@@H](O)[C@@H](O)[C@@H]5O)CC[C@@]45C[C@@]35C[C@@H](O)[C@]12C)C(=O)O[C@H]1O[C@@H](CO)[C@@H](O)[C@@H](O)[C@@H]1O`, with 1.11; and `CC(=O)Nc1ccc(S(=O)(=O)Nc2ccc([N+](=O)[O-])cc2)cc1`, with 1.16; and `Cc1cccc(S(=O)(=O)N2C[C@@H](O)COC[C@@H]3O[C@@H](CC(=O)NCCCN4CCOCC4)CC[C@H]32)c1`, with 1.14.
In the case of `O=C1OCc2cc(-n3cnnn3)ccc21`, the relative growth was determined as 0.874.
The figure for `CN1CCCN=C1/C=C/c1cccs1.O=C(O)c1cc2ccccc2c(Cc2c(O)c(C(=O)O)cc3ccccc23)c1O` is 0.888; for `C[C@H]1CN([C@@H](C)CO)C(=O)c2cc(Br)cnc2O[C@H]1CN(C)S(=O)(=O)c1ccc(F)cc1` it is 0.992; for `CN(C)CC(=O)N[C@@H]1CC[C@H](CCNC(=O)C2CCC2)O[C@H]1CO` it is 1.04.
Then `CN(C)C(=O)C[C@H]1C=C[C@H](NC(=O)C2CC2)[C@H](CO)O1`, with 0.876.
Then `C=CC[C@@H](CC(=O)N(CCO)Cc1ccccc1)C(=O)NC[C@@H](OC(=O)[C@@H](CC=C)Cc1ccc(F)cc1)c1ccccc1`, with 1.32; and `Cc1ccc(S(=O)(=O)N(C)C[C@@H]2Oc3cc(Br)ccc3S(=O)(=O)N([C@@H](C)CO)C[C@@H]2C)cc1`, with 0.954; and `COc1nn(C)cc1-c1n[nH]c(=S)n1C`, with 0.979.
`CO[C@H]1CN(C)C(=O)c2ccc(NS(C)(=O)=O)cc2OC[C@@H](C)N(C(=O)C2CCCCC2)C[C@@H]1C` registered a relative growth of 1.09.
`N[C@@H](CO)c1cccc(Br)c1` gave a relative growth of 1.04.
Compound `C[N+](C)(C)CCOP(=O)([O-])OP(=O)(O)OC[C@H]1OC(n2ccc(N)nc2=O)[C@H](O)[C@@H]1O` (some centres undefined) had a relative growth of 0.977.
For the compound `O=C1NC(=O)/C(=C\c2ccccc2)N1`, the relative growth came to 1.07.
`O=C1O[C@H](c2ccccc2)[C@H](c2ccccc2)N2[C@H]1[C@@H](C(=O)Nc1nc3ccccc3s1)[C@]1(C(=O)Nc3ccc(C#CC4(O)CCCCCC4)cc31)[C@H]2c1ccccc1OCCO` had a relative growth of 1.11.
Compound `O=C(C[C@H]1C[C@@H]2c3cc(NC(=O)Nc4ccccc4F)ccc3O[C@@H]2[C@@H](CO)O1)NCc1ccc(Oc2ccccc2)cc1` had a relative growth of 1.21.
Consider `C[C@@H]1CCCCO[C@H](CN(C)Cc2ccc3c(c2)OCO3)[C@@H](C)CN([C@@H](C)CO)C(=O)c2cc(NS(=O)(=O)c3cccs3)ccc2O1`, for which the relative growth turned out to be 0.998.
`O=C(C[C@@H]1CC[C@H](NC(=O)CN2CCOCC2)[C@@H](CO)O1)NC1CCC1` displayed a relative growth of 1.31.
Consider `CC[C@@H](C)NC(=O)Cn1cnc2c1c(=O)n(C)c(=O)n2C`, for which the relative growth was determined as 1.09.
`Cn1c(-c2ccccc2)c[nH]c1=S` yielded a relative growth of 1.03.
The figure for `CN1CCN(C(=O)CC#N)CC1` is 0.986; for `O=C(C[C@H]1C=C[C@@H](NC(=O)c2cccnc2)[C@H](CO)O1)NCc1ccncn1` it is 0.968; for `O=C(Cc1ccncc1)NCC[C@@H]1CC[C@@H](NC(=O)C2CCOCC2)[C@@H](CO)O1` it is 0.865.
The figure for `COc1ccc(NC(=O)N(C)C[C@H]2Oc3ncc(C#C[C@@H](C)O)cc3C(=O)N([C@H](C)CO)C[C@@H]2C)cc1` is 0.972; for `COc1ccccc1CNC(=O)C[C@H]1C[C@H]2c3cc(NS(=O)(=O)c4ccc(F)cc4)ccc3O[C@H]2[C@@H](CO)O1` it is 0.999; for `CC(=O)OCC(=O)O[C@@H]1[C@H]2[C@@H](OC(=O)c3ccccc3)[C@@H](C)C[C@]2(O)[C@H](OC(C)=O)[C@@]2(C)[C@H](OC(C)=O)[C@]1(OC(C)=O)C[C@H]1C(=O)C(C)(C)C[C@@H]12` it is 1.2.
The figure for `O=C(O)C[C@H]1C=C[C@@H](NC(=O)c2ccncc2)[C@H](CO)O1` is 0.949.
On to `COc1ccc([C@@H]([C@H](Cc2ccccc2)OC(C)=O)N2C[C@H](CC(=O)N(C)C)[C@@H]3[C@H]([C@@H]2Cc2ccccc2)N(C)O[C@H]3c2ccccc2)cc1`, for which the relative growth was determined as 1.27.
In turn, `CCCC(=O)O[C@]1(C(=O)CO)CCC2[C@@H]3CCC4=CC(=O)CC[C@]4(C)C3[C@@H](O)C[C@@]21C` (some centres undefined) showed a relative growth of 1.12.
Consider `O=C(C[C@H]1CC[C@@H]2[C@H](COC[C@@H](O)CN2S(=O)(=O)c2cccc(F)c2)O1)NCCCN1CCOCC1`, for which the relative growth amounted to 0.903.
Then `C[C@H]1CN([C@@H](C)CO)S(=O)(=O)c2ccc(-c3cncnc3)cc2O[C@@H]1CN(C)C(=O)NC1CCCC1`, with 1.03.
